High-throughput results: PubChem BioAssay, National Center for Advancing Translational Sciences (NCATS)
miR-21 reporter = miR-21 reporter, rising signal. 340,000 tested, under 10 active. Potency, µM (highest dose often 38.3 µM). HeLa miR-21 FLuc reporter, luciferase, 48 h. AID 2288; active = well fitted rising curve with a large enough effect; inconclusive = small, poorly fitted or top-dose-only effect; inactive = no such curve, though single readings can be large or run the other way;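 further: miR-21 action dims this reporter so a rising signal means less miR-21 action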
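Using DMEM plus 10% FBS, HeLa miR-21-FLuc cells are incubated with test compounds (final up to about 40uM) for 48 hours; firefly luciferase signal is then imaged following reagent-mediated lysis.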
TDP1 block = inhibitors of human tyrosyl-DNA phosphodiesterase TDP1; Q9NUW8; recombinant TDP1, AlphaScreen DNA substrate cleavage; Potency, µM (series often up to 130 µM), usual class: inhibitors; actives 0.28% (n = 350,000); note: nearly all actives have a fitted effect of over 40% in size
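E. coli-derived human Tdp1, 1 nM final. Cpd preinc 15 min RT; substrate 15 nM final, 5 min RT; AS bead mix 10 ug/ml final, 10 min RT. Signal loss = tyrosine-FITC cleavage. No-enzyme wells = max signal.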
TDP1 cell noCPT = qHTS for Inhibitors of human tyrosyl-DNA phosphodiesterase 1 (TDP1): qHTS in cells in absence of CPT; DT40 Tdp1-/- hTDP1 cells, no CPT, ATP luminescence, 48 h; Potency, µM (top dose mostly 46.2 µM), most hits filed as inhibitors; actives 15% (n = 420,000); AID 686978, 2013; note: nearly all actives have a fitted effect of over 55% in size
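Compound effects on proliferation are scored in DT40 Tdp1-/-;hTDP1 cells in the absence of CPT. ATP levels (CellTiter-Glo luminescence) are recorded after a ≥48 hr, 37 °C incubation.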
TDP1 cell CPT = growth inhibition of DT40 Tdp1-/-;hTDP1 cells with camptothecin (screen for TDP1 inhibitors) | chicken DT40 Tdp1-/-;hTDP1 cells + 20 nM CPT, ATP luminescence, 48 h | Potency, µM (highest dose often 46.2 µM), most hits filed as inhibitors | AID 686979 | actives 12% (n = 420,000); note: nearly all actives have a fitted effect of over 55% in size
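Cell growth measured by CellTiter-Glo luminescence after a minimum 48 h, 37 C compound exposure with 20 nM CPT in Tdp1-knockout DT40 cells stably expressing hTDP1, seeded 400/well; qHTS titration format.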
uPA surface inh = cell surface uPA generation inhibition. cell surface uPA generation assay, qHTS. Potency, µM (titrated, usually from 38.3 µM), usual class: inhibitors. actives 0.31% (n = 330,000). AID 540303; active = well fitted inhibition curve with a large enough effect; inconclusive = small, poorly fitted or top-dose-only effect; inactive = no such curve, though single readings can be large or run the other way; tested in mouse RAW 264.7 cells; note: nearly all actives have a fitted effect of over 55% in size
A number is an active result; 0 = inactive; ? = inconclusive; - = no result; [ ] = another dose, or the depositor's remark. The list is not random: actives were taken first. Their share in the collection is about 16%. Unless noted, calls come from the whole dose curve; as a rule, active = well fitted curve in the direction sought with a large enough effect; inconclusive = small, poorly fitted or top-dose-only effect, or another doubt; inactive = no such curve, though single readings can be large; an effect the other way counts as inactive or inconclusive.

SMILES	miR-21 reporter	TDP1 block	TDP1 cell noCPT	TDP1 cell CPT	uPA surface inh
COc1cc(Cl)c(NC(=O)C2CCN(S(=O)(=O)c3c(C)noc3/C=C/c3ccccc3F)CC2)c(OC)c1	0	0	0	0	-
c1ccc(CC2CCN(c3nc4ccccc4n4nnnc34)CC2)cc1	0	0	?	0	0
COc1ccccc1-c1nc2c3c(-c4ccccc4)c(-c4ccccc4)oc3ncn2n1	0	0[12.3 µM]	0	0	-
COc1ccccc1/C=C/c1onc(C)c1S(=O)(=O)N1CCC(C(=O)N2CCC(C)CC2)CC1	0	0	16µM	21µM	-
COc1ccccc1/C=C/c1onc(C)c1S(=O)(=O)N1CCC(C(=O)NC(C)C)CC1	0	-	0	0	0
CC(=O)c1ccc(N2CCN(C(=O)C3CCN(S(=O)(=O)c4c(C)noc4/C=C/c4ccccc4F)CC3)CC2)cc1	0	0	10µM	?	-
COc1cccc(N2CCN(C(=O)C3CCN(S(=O)(=O)c4c(C)noc4/C=C/c4ccccc4F)CC3)CC2)c1	0	0	?	?	-
CCOC(=O)C(Cc1c(F)cccc1Cl)c1ccno1 (stereo unspecified)	0	0	0	0	0
O=C(CN1CCN(c2ccccc2F)CC1)c1c[nH]c2ccccc12	0	0	?	?	0
O=C(c1ccccc1)N1CCN(Cc2c[nH]c3ccccc23)CC1	0	0	?	?	0
Fc1ccccc1N1CCN(C2CCN(Cc3c[nH]c4ccccc34)CC2)CC1	0	0	?	16µM	0
Clc1ccccc1N1CCN(Cc2c[nH]c3ccccc23)CC1	-	-	5.2µM	2.6µM	0
COc1cccc(-c2nnn(CC(=O)N3CCCCC3)n2)c1	0	-	0	0	0
OC[C@H](S)CS	-	13µM	16µM	8.9µM	-
OCC(S)CS (stereo unspecified)	-	-	17µM	?	-
COC(=O)C(CO)NC(=O)C1CCCN1C(=O)CNC(=O)OCc1ccccc1 (stereo unspecified)	0	-	0	0	0
CCN(CC)CCN(C)C1CCC(c2ccccc2)CC1 (stereo unspecified)	0	0	21µM	16µM	0
CN(C)S(=O)(=O)c1ccc2c(c1)N(CC(=O)Nc1cccc(C(F)(F)F)c1)C(=O)CS2	0	0	?	?	-
O=C(NCCC(=O)N1CCC2(CC1)NCCc1[nH]cnc12)c1ccc(F)c(F)c1	0	0	0	0	0
Cc1oc(/C=N/NC(=O)CN(c2ccccc2Cl)S(C)(=O)=O)cc1Br	0	0	?	0	0
CCC(CC)C(=O)N(C)c1c(C)nc2c(OCCOc3ccc(F)cc3)cccn12	-	-	18µM	21µM	-
CCC(CC)C(=O)N(C)c1c(C)nc2c(OCC(=O)C(C)(C)C)cccn12	-	-	?	0	-
CCC(CC)C(=O)N(C)c1c(C)nc2c(OCCC3CCCCC3)cccn12	-	-	5.2µM	7.3µM	-
c1csc(-c2nnc(N3CCOCC3)c3ccccc23)c1	0	0	?	0	0
CCOC(=O)C(=NC1CCS(=O)(=O)C1)NNc1ccc(Br)cc1 (stereo unspecified)	0	0	0	0	0
SMILES	miR-21 reporter	TDP1 block	TDP1 cell noCPT	TDP1 cell CPT	uPA surface inh
Cc1ccc(NC(=O)Nc2nnc(N(CC(C)C)CC(C)C)s2)cc1Cl	0	0	16µM	9.2µM	-
Cc1ccc(NC(=O)Nc2cccnc2)cc1Cl	0	-	0	?	0
CC(C)(C)c1ccc(C(=O)n2cnc3ccccc32)cc1	0	-	0	0	0
CC(C)N1CC2(CC(c3ccccc3C(F)(F)F)=NO2)CN1C(=O)c1ccco1 (stereo unspecified)	-	-	8.2µM	?	-
C/C=C\C(=O)Nc1cccc(C2=NOC3(C2)C[C@@H](C(N)=O)N(C(=O)c2ccc(Cl)cc2)C3)c1 (stereo partly specified)	0	0	0	0	0
CC(C)N1CC2(CC(c3ccccc3F)=NO2)CN1C(=O)c1ccc(C(C)(C)C)cc1 (stereo unspecified)	-	-	10µM	23µM	-
CC(C)N1CC2(CC(c3ccccc3C(F)(F)F)=NO2)CN1C(=O)c1ccc(C(C)(C)C)cc1 (stereo unspecified)	-	-	21µM	16µM	-
CC(C)N1CC2(CC(c3ccc(Cl)cc3Cl)=NO2)CN1C(=O)c1ccc(C(C)(C)C)cc1 (stereo unspecified)	-	-	12µM	15µM	-
CCn1c(CNS(=O)(=O)c2ccc(Br)cc2)nnc1SC	0	0	0	0	0
COc1ccc(C(=O)NCCc2nnc3ccc(SCC(=O)Nc4cc(C)on4)nn23)cc1	0	0	0	0	0
Cc1cccc(NC(=O)CN2C(=O)N/C(=C/c3cc(C)n(C)c3C)C2=O)c1	0	0	0	0	0
Cc1ccccc1CNC1CCCCC1	0	0	0	0	0
Oc1cc(CNC2CCCCC2)c(O)cc1CNC1CCCCC1	-	-	5.8µM	18µM	0
CC(=O)Oc1ccc(C(=O)NC(C)CCc2ccccc2)cc1 (stereo unspecified)	0	-	0	0	0
c1ccc(C2Oc3ccccc3C3CC(c4cccs4)=NN32)cc1 (stereo unspecified)	0	0	16µM	?	0
Fc1ccc(N2N=C(c3cccs3)CC2c2ccccc2)cc1 (stereo unspecified)	0	13µM	?	0	0
C=CCn1c2ccccc2c(=O)c2cc(C#Cc3ccccn3)ccc21	-	0	18µM	26µM	?
Cc1cc(=O)c2ccccc2[nH]1	0	0	0	0	0
O=c1cc(-c2ccc(Cl)cc2)[nH]c2ccccc12	0	0	6.5µM	4.1µM	?
COc1cc2[nH]c(-c3ccc(C)cc3)cc(=O)c2cc1OC	0	0	?	0	0
Cc1ccc(-c2cc(=O)c3ccccc3[nH]2)cc1	0	0	9.2µM	16µM	11µM
Cc1ccc2[nH]c(-c3ccccc3)cc(=O)c2c1	0	0	0.65µM	0.82µM	?
Cc1cc(C)c(Cn2c(=O)n(CCCC(=O)NCc3ccco3)c(=O)c3sccc32)c(C)c1	0	0	?	?	0
N#CCN(CC#N)C(=O)C1c2ccccc2Oc2ccccc21	0	0	?	?	0
O=C(CNc1ccc(Br)cc1)c1ccc(Br)s1	0	0[0.0935 µM]	0	0	0
SMILES	miR-21 reporter	TDP1 block	TDP1 cell noCPT	TDP1 cell CPT	uPA surface inh
Cc1nc2c(OCc3ccc(OC(F)F)cc3)cccn2c1N(C)C(=O)CCC1CCCC1	-	-	10µM	13µM	-
Cc1nc2c(OCc3ccc(F)c(F)c3)cccn2c1N(C)C(=O)CCC1CCCC1	-	-	16µM	?	-
Cc1nc2c(OCCN3C(=O)c4ccccc4C3=O)cccn2c1N(C)C(=O)CCC1CCCC1	-	-	0	0	-
CCOc1ccccc1CN1CCN(S(=O)(=O)c2ccccc2)CC1	0	0[12.3 µM]	?	?	-
O=C(NC1CCCCCC1)C1CCN(C(=O)N2CCOc3ccccc32)CC1	0	0	?	?	-
CCn1c(=O)cc(SCC(=O)NCc2ccc(F)cc2Cl)c2ccccc21	0	0	?	?	-
